Literature values as cited in patent publication US8003847B2, “Non-human mutant mammals deficient in Sigma receptors and their applications” (Laboratorios Del Dr. Esteve, S.A., priority 2002, dated 2011).

Chains of the proteins cited; added tags and fusions are not shown.
UniProt Q99720, whole entry: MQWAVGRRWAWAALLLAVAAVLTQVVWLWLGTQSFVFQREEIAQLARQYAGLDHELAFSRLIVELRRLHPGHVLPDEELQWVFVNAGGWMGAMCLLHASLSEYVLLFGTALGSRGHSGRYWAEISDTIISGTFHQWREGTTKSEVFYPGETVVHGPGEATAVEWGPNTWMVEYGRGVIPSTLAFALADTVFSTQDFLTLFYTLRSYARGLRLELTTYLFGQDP

Biological target: type-1 Sigma receptors (Homo sapiens, UniProt Q99720)
Conditions: type-1 Sigma receptor, result in words; cited from earlier work

For (+)-SKF10047, the affinity is listed as “high affinity”.
